Source: US20140221283A1 (Indiana University Research and Technology Corporation, priority 2011, published 2014)
pEC50: −log10 of the molar value.

Sequences of proteins named here, by UniProt entry; tags and fusion partners are left off. Residues count along the entry.
UniProt P47871, 26-477: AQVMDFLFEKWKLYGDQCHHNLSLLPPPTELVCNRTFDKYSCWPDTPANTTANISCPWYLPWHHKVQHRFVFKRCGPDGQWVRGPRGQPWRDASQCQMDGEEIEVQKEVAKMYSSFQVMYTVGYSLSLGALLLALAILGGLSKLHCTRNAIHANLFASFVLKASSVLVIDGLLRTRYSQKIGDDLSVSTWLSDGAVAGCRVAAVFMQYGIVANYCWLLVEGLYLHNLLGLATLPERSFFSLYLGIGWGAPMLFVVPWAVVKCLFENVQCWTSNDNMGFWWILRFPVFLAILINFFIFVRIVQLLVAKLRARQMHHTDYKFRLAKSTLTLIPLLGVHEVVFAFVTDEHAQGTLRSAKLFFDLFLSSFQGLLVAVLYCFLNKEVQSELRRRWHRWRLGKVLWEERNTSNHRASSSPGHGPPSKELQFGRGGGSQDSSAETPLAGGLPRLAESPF
UniProt P43220, 24-463: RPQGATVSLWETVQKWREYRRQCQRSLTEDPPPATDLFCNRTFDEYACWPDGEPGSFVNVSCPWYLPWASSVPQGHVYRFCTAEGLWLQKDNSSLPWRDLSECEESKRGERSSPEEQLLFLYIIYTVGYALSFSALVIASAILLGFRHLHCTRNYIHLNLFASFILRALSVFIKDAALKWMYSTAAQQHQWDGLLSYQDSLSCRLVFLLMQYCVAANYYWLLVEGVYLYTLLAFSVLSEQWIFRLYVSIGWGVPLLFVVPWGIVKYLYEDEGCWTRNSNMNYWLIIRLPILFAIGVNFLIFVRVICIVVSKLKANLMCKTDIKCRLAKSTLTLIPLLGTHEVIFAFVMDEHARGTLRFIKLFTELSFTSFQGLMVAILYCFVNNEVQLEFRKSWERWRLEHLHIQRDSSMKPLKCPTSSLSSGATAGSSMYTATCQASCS

Columns and labels:
Type in all cases: cell-based
glucagon receptor = biological target: T1, glucagon receptor (Homo sapiens, UniProt P47871); test: firefly luciferase-based cAMP reporter assay, HEK293 cells co-transfected with glucagon receptor (Example 3)
T1 construct: expressed in transfected cells; host or cells: HEK293
Description: (§1) The ability of each peptide to induce cAMP was measured in a firefly luciferase-based reporter assay.
(§2) At the end of the incubation, 100 μL of LucLite luminescence substrate reagent (Perkin Elmer, Wellesley, Mass.) were added to each well.

GIP receptor = biological target: T2, GIP receptor (Homo sapiens, UniProt P48546); test: firefly luciferase-based cAMP reporter assay, HEK293 cells, GIP receptor (Example 3)
T2 construct: expressed in transfected cells; host or cells: HEK293
T2 sequence (P48546 22-466): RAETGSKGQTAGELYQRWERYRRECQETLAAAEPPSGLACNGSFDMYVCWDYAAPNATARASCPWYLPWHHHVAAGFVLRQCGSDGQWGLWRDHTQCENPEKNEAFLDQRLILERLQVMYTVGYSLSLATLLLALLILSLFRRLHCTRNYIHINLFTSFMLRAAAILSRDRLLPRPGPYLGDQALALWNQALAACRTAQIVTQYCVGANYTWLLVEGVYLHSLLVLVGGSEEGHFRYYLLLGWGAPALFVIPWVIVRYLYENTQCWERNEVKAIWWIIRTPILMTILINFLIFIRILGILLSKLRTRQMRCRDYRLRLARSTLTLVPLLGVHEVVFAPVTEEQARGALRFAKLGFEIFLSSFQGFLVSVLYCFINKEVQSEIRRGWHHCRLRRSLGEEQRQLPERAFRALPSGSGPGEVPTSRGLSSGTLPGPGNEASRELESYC
Description: It is understood that a lower EC50 indicates higher activity or potency at the receptor.
as §1, §2
In some instances, the in vitro agonist activity at the GIP receptor was also tested.

human GLP-1R = human GLP-1R (Homo sapiens, UniProt P43220); test: firefly luciferase-based cAMP reporter assay, HEK293 cells co-transfected with GLP-1 receptor (Example 3); design: expressed in transfected cells; host or cells: HEK293
Description: as §1, §2

CCCCCCCCCCCCCCCC(=O)N[C@@H](CCC(=O)NCCCC[C@H](NC(=O)[C@H](CC(=O)O)NC(=O)[C@H](CO)NC(=O)[C@@H](NC(=O)[C@H](Cc1ccccc1)NC(=O)[C@@H](NC(=O)CNC(=O)[C@H](CCC(N)=O)NC(=O)[C@@H](CO)NC(=O)[C@@H](N)Cc1c[nH]cn1)[C@@H](C)O)[C@@H](C)O)C(=O)N[C@@H](CO)C(=O)N[C@@H](CCCCN)C(=O)N[C@@H](Cc1ccc(O)cc1)C(=O)N[C@@H](CC(C)C)C(=O)N[C@@H](CC(=O)O)C(=O)N[C@@H](CCC(=O)O)C(=O)N[C@@H](CCCNC(=N)N)C(=O)N[C@@H](C)C(=O)N[C@@H](C)C(=O)N[C@@H](CCC(N)=O)C(=O)N[C@@H](CC(=O)O)C(=O)N[C@@H](Cc1ccccc1)C(=O)N[C@H](C(=O)N[C@@H](CCC(N)=O)C(=O)N[C@@H](Cc1c[nH]c2ccccc12)C(=O)N[C@@H](CC(C)C)C(=O)N[C@@H](CC(C)C)C(=O)N[C@@H](CC(=O)O)C(=O)N[C@H](C(=O)N[C@@H](CCCCN)C(=O)N[C@@H](CCC(N)=O)C(=O)O)[C@@H](C)O)C(C)C)C(=O)O [SEQ ID NO: 14]
pEC50 (glucagon receptor): 11.52 | pEC50 (GIP receptor): 6.01 | pEC50 (human GLP-1R): 11.52
